Literature values as cited in US20180340012A1, “METHODS AND CO[…] TO IMPROVING PROPERTIES OF PHARMACOLOGICAL AGENTS TARGETING NERVOUS SYSTEM” (University of Utah Research Foundation, priority 2006, published 2018).
pKd: −log10 of the molar value.

Biological target: galanin receptors
Settings: truncation of GAL(1-16) fragment; read-out: KD towards galanin receptors; cited from earlier work

SMILES: CC[C@H](C)[C@H](NC(=O)[C@H](C)NC(=O)[C@H](Cc1c[nH]cn1)NC(=O)[C@@H]1CCCN1C(=O)CNC(=O)[C@H](CC(C)C)NC(=O)[C@H](CC(C)C)NC(=O)[C@H](Cc1ccc(O)cc1)NC(=O)CNC(=O)[C@H](C)NC(=O)[C@H](CO)NC(=O)[C@H](CC(N)=O)NC(=O)[C@H](CC(C)C)NC(=O)[C@@H](NC(=O)[C@H](Cc1c[nH]c2ccccc12)NC(=O)CN)[C@@H](C)O)C(=O)O [Fragment 1-16]
- pKd: 8.15
